In ChEMBL document CHEMBL1137966, “Thrombin inhibitors built on an azaphenylalanine scaffold” (Bioorg Med Chem Lett, 2004):

Target: Prothrombin (Homo sapiens, UniProt P00734)

- Ki: 12 µM
Compound: CC1CCCCN1C(=O)N(Cc1cccc(C(=N)NO)c1)NS(=O)(=O)c1ccc2ccccc2c1 (stereo unspecified)
